The results in this text go back to PMC8155056, “Cooperative inhibition of SNARE-mediated vesicle fusion by α-synuclein monomers and oligomers” (Scientific Reports, 2021).

Assay [1] addresses synaptobrevin-2 (amino acids 1–116; one cysteine was replaced with alanine), reconstituted in v-vesicles (UniProt P63045).
Assay [2] has the same target. This is another data set of the same source.

On to “dopamine-induced α-Syn oligomers (from UniProt P37840 1-140) (complex)”, for which, in assay [1], the in vitro lipid mixing (FRET, DiI/DiD) of t-vesicles and v-vesicles with 10 nM α-Syn oligomers, 37 °C: reduction of lipid mixing came to 50%. As for “α-Syn monomer (wild type) (from UniProt P37840 1-140) (natural protein)”, the in vitro lipid mixing of t-vesicles and v-vesicles without PS (0% PS) with 10 nM α-Syn oligomers and wild-type α-Syn monomer (200 nM to 2 μM): recovery of lipid mixing in assay [2] worked out at 100%.
